Target: EZH2 (Homo sapiens)
Experiment: Inhibition of human N-terminal His-tagged EZH2/flag-tagged EED/SUZ12/AEBP2/RBAP48 A677G mutant (2 to end residues) expressed in baculovirus infected Sf9 insect cells using histone H3 (1 to 50 residues)-GGK as substrate after 2 hrs in presence of SAM by fluorescence assay

## CCc1c(N(CC)C2CCOCC2)cc2oc(C3CCN(C(C)C)CC3)cc2c1C(=O)NCc1c(C)cc(C)[nH]c1=O
  IC50: 4 nM

Source: ChEMBL document CHEMBL4138300 (ACS Med Chem Lett, 2018)
